# From patent US20240263147A1, “CARDIAC ORGANOID AND ANTI-ELECTRO-MITOCHONDRIAL DESYNCHRONIZATION THERAPY” (YISSUM RESEARCH DEVELOPMENT COMPANY OF THE HEBREW …, priority 2021, published 2024)
# How the values were obtained:
# [1] = test system: hiPSC-derived vascularized cardiac organoids; test: Beating of vascularized cardiac organoids under pharmaceutical stimulation; assay type: cell-based, human
# Experimental: hiPS-derived cardiomyocytes and microvascular cardiac endothelial cells (VEC Technologies, USA) were counted and mixed in a 2:1 ratio in growth factor reduced Matrigel (BD Biosciences, San Jose, CA) at a cell density of 6.8×10^4 cells per μl. A volume of 1.1 μl of the gel-imbedded mixture (7.48×10^4 cells) was injected into each microwell and left to form spontaneously in RPMI-1640 supplemented with B27 minus insulin and 5 ng/ml vascular endothelial growth factor (VEGF-A, Peprotech) until their spontaneous beating was regained after 6-10 days.
# Fast phase-contrast imaging (17 frames per second) was performed at suitable magnification using an LSM-700 Zeiss microscope. The time-lapse micrograph was analyzed using a custom MATLAB® code. Briefly, multiple regions of interest (ROIs) were selected on the cardiac tissue borders, producing a distinct area with changes representative of the cardiac contraction. Dynamic changes in the ROI intensity were measured over time and converted into beating rates using Fast Fourier Transformation (FFT). Contractility was calculated based on the frequency amplitude magnitude.
# [2] = test system: vascularized cardiac organoids; test: Integrated metabolic-electro-mechanical sensor chip: simultaneous contraction, field potential and interstitial oxygen; assay type: cell-based, human
# Experimental: The MEA design and printed connections enabled access to 45 different electrodes inside the platform intermittently via a compatible sensor circuit (FIGS. 9A-9B). Spontaneous cardiac field potentials (FPs) were recorded from cardiac organoids using an integrated signal conditioning circuit (AD8232®), with a 2-pole adjustable high-pass filter, 3-pole adjustable low-pass filter, adjustable gain, and medical instrumentation amplifiers to extract, amplify, and filter the extracellular field potential of the organoids remotely within the confined well. […] Spontaneous cardiac field potentials were measured at 100 Hz sampling rate in each microwell. Field potential rhythm frequency was calculated in real-time using a custom-made MATLAB® software imposing Fourier Transformation (FFT) on the evolving kinetic data (FIGS. 9C-9D).
# Real-time oxygen measurement was performed based on previously described elements. […] A phase shift is measured between the emission hardware-filtered first detector (PMT), and a second excitation detector (cPMT). […] Contraction rate and oxygen rhythm frequency were calculated in real-time using a custom-made MATLAB® software imposing Fourier Transformation (FFT) on the evolving kinetic data. […] Cardiac displacement was measured by the embedded oxygen beads inside the cardiac organoids during a contraction. […]
smiles,measurement,setting,value
CNC[C@H](O)c1ccc(O)c(O)c1 [epinephrine],increase of relative contraction / contraction amplitude,[1],18%
same,interstitial oxygen oscillation frequency,[2],1.83 Hz
